From publication PMC9494746, “Dissecting the Kinetic Mechanism of Human Lysine Methyltransferase 2D and Its Interactions with the WRAD2 Complex” (Biochemistry, 2022)

Molecular target: T1, hKMT2D SET domain (Homo sapiens, UniProt O14686)
T1 construct: expressing amino acids 5308-5537 of the hKMT2D catalytic SET domain; 6xHis + TEV site (N, cleaved yes); made in house; host or cells: KMT2D Win-SET: Sf21 (baculovirus); WDR5, RbBP5, Ash2L, DPY30: E. coli Rosetta 2 (DE3); H3 peptides bought from Chinese Peptide Company
Experiment: WRAD2 titration: MTase-Glo steady-state substrate matrix experiments
Format: biochemical
Settings: assigned from the WRAD2 titration fits
Description: SET domain activity was monitored with a quantitative endpoint assay determining AdoHcy production using MTase-Glo by Promega.[39] Assays were performed as time courses at room temperature with buffer constituents, 50 mM Tris, pH 7.5, 50 mM NaCl, 1 mM DTT, 1% DMSO, and 0.005% w/v Triton X-100 in deionized water. […] Addition of 1 μL of 0.5% v/v TFA was used to stop the methylation reaction at defined time points; 1 μL of 6× concentrated MTase-Glo reagent was added to each well and incubated at room temperature. After 30 min, 6 μL of the prefiltered MTase-Glo detection reagent was added and incubated for a further 30 min at room temperature. Luminescence was measured using an Envision 2101 Multilabel plate reader, and product concentrations were calculated using an AdoHcy standard curve. Steady-state rates were obtained by plotting AdoHcy production over time and normalized to SET domain concentration. Experiments were performed in triplicate and expressed as the mean ± SD. Data were analyzed using nonlinear regression in GraphPad Prism v9.1.
Steady-state rates were measured in substrate matrix experiments. Data were globally fitted to ternary Bi–Bi and Ping–Pong models to obtain kcat and KM parameters (eqs 1 and 2).
The ternary Bi–Bi model [drawing 1] 1 The Ping–Pong model [drawing 2] […]

Kd: 4 nM
Substance: Ash2L: absent small or homoeotic 2-like, WRAD2 component
